Results on 1 molecule are retold here after PMC13191471, “RNF126 writes a non-canonical ubiquitin code on midnolin to tune protein stability” (Acta Biochimica et Biophysica Sinica, 2026).

The experiment deals with T1, MIDN-His6, recombinant (human, UniProt Q504T8 1-468).
T1 construct: Midnolin (MIDN), cDNA amplified from HEK293T cells (full-length or truncated cDNA was cloned; this construct is named without limits); also called Midnolin; source: E. coli BL21 (DE3), purified (Ni-NTA agarose); not shown: His6, C-terminal, kept
T1 sequence (looked up): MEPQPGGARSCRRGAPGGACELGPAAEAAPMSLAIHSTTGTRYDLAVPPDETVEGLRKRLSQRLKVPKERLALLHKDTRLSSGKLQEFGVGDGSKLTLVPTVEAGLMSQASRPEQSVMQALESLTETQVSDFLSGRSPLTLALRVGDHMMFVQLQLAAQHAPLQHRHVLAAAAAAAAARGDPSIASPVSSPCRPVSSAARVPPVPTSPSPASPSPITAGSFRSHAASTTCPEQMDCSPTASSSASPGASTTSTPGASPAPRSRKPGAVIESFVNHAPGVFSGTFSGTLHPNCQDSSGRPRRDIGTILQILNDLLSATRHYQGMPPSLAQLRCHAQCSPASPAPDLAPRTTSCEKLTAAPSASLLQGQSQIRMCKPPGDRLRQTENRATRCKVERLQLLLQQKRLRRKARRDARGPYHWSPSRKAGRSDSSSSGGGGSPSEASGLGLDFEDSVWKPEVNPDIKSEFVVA
In words: pull-down; GST pull-down: 5 ug His6-tagged and 5 ug GST-tagged protein, glutathione Sepharose 4B, overnight at 4 C, 20 mM Tris-HCl pH 8.0, 100 mM NaCl, 5 mM MgCl2, 1 mM EDTA, 0.5% NP-40, 1 mM DTT, 10 mg/mL BSA; immunoblotting. As to conditions: both partners purified.

B1: GST-RNF126, recombinant (enzyme, human, UniProt Q9BV68 1-311, looked up)
chain: MAEASPHPGRYFCHCCSVEIVPRLPDYICPRCESGFIEELPEETRSTENGSAPSTAPTDQSRPPLEHVDQHLFTLPQGYGQFAFGIFDDSFEIPTFPPGAQADDGRDPESRRERDHPSRHRYGARQPRARLTTRRATGRHEGVPTLEGIIQQLVNGIITPATIPSLGPWGVLHSNPMDYAWGANGLDAIITQLLNQFENTGPPPADKEKIQALPTVPVTEEHVGSGLECPVCKDDYALGERVRQLPCNHLFHDGCIVPWLEQHDSCPVCRKSLTGQNTATNPPGLTGVSFSSSSSSSSSSSPSNENATSNS
notes: RNF126, E3 ubiquitin ligase, cDNA amplified from HEK293T cells (full-length or truncated cDNA was cloned; this construct is named without limits); also called recombinant RNF126; source: E. coli BL21 (DE3), purified (glutathione-Sepharose 4B); not shown: GST, N-terminal, kept
Turning to B1, the binding result is “binds”.
